Assay [1] has as its target T1, Amine oxidase [flavin-containing] A (Homo sapiens, UniProt P21397). Format: functional.
The target in assay [2] is T1, Amine oxidase [flavin-containing] A. Format: functional. The source holds these as a separate data set.
For assay [3], the target named is Sodium channel protein type 5 subunit alpha (Homo sapiens, UniProt Q14524). Format: functional, cell-based.
Another assay addresses Acetylcholinesterase (Homo sapiens, UniProt P22303). It is filed as functional.
In assay [4] the target is Muscarinic acetylcholine receptor M1 (Homo sapiens, UniProt P11229). Format: functional.
Assay [5] concerns the target 5-hydroxytryptamine receptor 2C (Homo sapiens, UniProt P28335).
Assay [6] deals with T2, 5-hydroxytryptamine receptor 1A (Homo sapiens, UniProt P08908).
Assay [7] addresses T2, 5-hydroxytryptamine receptor 1A. This is another data set of the same source.
Assay [8] shares this target. Format: functional, cell-based.
The target in assay [9] is Voltage-gated inwardly rectifying potassium channel KCNH2 (Homo sapiens, UniProt Q12809).
The target of assay [10] is Prostaglandin G/H synthase 1 (Homo sapiens, UniProt P23219). Format: functional.
Assay [11] concerns the target Glutamate receptor ionotropic, NMDA 1 (Rattus norvegicus, UniProt P35439).

The chains behind the UniProt entries cited, without tags or fusion partners. Where a name states a change or a piece, a line headed by the entry shows the natural chain unless it says otherwise.
UniProt P21397, whole entry: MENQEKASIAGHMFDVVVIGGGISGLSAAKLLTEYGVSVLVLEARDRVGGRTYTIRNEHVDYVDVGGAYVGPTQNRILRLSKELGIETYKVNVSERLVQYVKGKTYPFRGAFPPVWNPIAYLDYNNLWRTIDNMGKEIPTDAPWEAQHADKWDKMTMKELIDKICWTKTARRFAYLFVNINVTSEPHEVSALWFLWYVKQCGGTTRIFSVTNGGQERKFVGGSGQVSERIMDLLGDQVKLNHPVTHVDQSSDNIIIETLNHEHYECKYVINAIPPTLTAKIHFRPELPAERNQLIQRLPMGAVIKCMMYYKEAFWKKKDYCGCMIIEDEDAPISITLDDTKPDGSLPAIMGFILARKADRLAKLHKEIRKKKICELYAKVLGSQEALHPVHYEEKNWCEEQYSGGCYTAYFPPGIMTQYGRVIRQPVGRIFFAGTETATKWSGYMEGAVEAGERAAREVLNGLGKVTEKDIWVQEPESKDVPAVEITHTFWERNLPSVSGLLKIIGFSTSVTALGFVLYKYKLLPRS
UniProt Q14524, whole entry: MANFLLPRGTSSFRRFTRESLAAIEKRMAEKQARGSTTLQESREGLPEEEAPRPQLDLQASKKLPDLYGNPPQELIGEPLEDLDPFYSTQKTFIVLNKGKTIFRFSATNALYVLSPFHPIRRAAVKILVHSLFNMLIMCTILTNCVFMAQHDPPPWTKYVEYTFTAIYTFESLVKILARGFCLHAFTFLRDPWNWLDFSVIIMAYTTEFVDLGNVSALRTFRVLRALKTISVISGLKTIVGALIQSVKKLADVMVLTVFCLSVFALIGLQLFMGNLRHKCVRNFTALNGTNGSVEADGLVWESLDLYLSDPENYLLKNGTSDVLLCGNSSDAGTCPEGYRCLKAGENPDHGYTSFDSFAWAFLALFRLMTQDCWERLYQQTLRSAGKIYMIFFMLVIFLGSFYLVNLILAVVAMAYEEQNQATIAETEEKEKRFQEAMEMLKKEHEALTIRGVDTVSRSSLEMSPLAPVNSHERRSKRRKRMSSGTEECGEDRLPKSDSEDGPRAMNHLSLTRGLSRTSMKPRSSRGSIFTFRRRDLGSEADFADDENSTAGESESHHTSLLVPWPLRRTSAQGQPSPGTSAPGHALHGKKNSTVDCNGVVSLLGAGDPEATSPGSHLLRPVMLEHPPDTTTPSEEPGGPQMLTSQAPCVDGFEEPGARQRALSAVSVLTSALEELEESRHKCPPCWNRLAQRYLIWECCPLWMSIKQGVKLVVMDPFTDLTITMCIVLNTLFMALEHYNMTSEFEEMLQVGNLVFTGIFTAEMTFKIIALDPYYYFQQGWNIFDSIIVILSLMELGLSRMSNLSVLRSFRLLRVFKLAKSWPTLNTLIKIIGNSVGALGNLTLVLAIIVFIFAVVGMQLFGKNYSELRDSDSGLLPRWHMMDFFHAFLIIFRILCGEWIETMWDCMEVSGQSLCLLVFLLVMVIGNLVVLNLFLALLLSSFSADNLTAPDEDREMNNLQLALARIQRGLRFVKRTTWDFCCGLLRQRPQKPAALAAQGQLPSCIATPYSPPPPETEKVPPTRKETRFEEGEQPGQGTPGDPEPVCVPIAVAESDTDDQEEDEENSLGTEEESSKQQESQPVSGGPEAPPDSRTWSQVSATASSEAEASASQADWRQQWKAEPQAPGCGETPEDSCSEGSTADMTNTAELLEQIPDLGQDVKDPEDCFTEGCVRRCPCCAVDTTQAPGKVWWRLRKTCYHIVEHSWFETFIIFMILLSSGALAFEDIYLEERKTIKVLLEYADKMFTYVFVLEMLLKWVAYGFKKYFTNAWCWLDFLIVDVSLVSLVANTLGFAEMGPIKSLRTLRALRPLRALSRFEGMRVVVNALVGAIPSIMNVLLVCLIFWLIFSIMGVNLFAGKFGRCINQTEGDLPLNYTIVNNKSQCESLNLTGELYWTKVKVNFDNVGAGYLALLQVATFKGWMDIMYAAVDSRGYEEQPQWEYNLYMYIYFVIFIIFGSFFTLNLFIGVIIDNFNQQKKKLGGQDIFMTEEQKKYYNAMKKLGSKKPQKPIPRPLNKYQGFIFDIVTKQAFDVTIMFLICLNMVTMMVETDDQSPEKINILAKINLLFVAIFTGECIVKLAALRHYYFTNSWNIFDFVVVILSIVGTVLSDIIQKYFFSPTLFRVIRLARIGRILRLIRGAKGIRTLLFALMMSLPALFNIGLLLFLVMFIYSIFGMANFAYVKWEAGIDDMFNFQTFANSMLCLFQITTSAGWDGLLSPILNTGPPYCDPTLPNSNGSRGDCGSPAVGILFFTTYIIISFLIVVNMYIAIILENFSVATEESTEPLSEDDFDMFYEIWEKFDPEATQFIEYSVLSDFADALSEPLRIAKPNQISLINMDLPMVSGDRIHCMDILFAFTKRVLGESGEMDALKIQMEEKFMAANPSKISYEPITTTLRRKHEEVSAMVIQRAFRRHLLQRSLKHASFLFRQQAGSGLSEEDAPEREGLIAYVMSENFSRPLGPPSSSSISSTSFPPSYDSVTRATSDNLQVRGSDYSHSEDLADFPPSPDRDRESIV
UniProt P22303: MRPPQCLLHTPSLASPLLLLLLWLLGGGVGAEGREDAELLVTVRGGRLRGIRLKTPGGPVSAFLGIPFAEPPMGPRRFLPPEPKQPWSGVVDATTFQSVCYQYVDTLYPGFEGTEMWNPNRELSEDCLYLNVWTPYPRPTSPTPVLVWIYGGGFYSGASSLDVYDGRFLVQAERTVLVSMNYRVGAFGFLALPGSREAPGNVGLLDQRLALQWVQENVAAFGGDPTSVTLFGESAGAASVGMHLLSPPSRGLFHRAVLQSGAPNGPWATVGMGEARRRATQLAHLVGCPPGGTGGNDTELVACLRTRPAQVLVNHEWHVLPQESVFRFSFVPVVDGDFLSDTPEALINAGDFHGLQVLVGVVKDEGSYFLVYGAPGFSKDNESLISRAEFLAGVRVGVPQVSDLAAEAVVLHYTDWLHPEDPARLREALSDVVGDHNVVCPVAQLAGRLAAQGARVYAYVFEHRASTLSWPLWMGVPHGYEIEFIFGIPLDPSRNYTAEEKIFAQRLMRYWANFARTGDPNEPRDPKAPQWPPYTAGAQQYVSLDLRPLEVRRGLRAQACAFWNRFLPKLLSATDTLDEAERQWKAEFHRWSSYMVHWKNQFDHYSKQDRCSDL
UniProt P11229: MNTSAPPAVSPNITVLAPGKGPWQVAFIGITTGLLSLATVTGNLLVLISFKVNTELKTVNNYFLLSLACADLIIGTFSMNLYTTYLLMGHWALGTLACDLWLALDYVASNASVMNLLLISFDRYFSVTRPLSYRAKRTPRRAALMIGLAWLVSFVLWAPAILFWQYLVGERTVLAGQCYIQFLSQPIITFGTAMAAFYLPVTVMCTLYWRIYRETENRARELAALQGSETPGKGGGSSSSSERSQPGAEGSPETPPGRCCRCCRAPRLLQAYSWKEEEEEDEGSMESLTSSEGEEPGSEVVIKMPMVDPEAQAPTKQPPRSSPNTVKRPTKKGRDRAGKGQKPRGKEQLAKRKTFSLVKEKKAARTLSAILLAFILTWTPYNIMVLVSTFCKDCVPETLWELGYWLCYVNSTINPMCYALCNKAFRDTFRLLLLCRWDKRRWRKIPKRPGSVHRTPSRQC
UniProt P28335: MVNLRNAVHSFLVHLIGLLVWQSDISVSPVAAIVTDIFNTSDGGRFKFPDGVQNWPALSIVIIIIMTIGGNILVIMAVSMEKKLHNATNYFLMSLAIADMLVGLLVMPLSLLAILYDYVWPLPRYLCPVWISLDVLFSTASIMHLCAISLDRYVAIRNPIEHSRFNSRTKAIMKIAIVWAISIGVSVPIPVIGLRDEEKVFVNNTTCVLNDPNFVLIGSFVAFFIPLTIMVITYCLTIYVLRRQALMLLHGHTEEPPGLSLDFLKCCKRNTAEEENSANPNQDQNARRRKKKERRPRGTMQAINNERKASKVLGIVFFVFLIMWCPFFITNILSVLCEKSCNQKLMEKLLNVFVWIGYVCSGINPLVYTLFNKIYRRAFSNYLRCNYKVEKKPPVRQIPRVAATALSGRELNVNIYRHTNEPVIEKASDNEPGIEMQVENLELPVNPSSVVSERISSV
UniProt P08908, whole entry: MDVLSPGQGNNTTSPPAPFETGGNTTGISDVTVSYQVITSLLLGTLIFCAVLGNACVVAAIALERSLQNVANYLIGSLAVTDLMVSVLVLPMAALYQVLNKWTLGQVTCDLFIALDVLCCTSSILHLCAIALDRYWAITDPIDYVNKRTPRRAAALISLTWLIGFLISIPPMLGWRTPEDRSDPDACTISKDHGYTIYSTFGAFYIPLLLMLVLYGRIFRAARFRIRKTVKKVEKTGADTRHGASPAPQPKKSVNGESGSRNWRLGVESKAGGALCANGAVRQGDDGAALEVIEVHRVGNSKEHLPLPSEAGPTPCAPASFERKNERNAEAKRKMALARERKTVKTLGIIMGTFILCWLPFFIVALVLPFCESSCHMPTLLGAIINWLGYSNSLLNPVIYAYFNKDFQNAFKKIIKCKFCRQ
UniProt Q12809: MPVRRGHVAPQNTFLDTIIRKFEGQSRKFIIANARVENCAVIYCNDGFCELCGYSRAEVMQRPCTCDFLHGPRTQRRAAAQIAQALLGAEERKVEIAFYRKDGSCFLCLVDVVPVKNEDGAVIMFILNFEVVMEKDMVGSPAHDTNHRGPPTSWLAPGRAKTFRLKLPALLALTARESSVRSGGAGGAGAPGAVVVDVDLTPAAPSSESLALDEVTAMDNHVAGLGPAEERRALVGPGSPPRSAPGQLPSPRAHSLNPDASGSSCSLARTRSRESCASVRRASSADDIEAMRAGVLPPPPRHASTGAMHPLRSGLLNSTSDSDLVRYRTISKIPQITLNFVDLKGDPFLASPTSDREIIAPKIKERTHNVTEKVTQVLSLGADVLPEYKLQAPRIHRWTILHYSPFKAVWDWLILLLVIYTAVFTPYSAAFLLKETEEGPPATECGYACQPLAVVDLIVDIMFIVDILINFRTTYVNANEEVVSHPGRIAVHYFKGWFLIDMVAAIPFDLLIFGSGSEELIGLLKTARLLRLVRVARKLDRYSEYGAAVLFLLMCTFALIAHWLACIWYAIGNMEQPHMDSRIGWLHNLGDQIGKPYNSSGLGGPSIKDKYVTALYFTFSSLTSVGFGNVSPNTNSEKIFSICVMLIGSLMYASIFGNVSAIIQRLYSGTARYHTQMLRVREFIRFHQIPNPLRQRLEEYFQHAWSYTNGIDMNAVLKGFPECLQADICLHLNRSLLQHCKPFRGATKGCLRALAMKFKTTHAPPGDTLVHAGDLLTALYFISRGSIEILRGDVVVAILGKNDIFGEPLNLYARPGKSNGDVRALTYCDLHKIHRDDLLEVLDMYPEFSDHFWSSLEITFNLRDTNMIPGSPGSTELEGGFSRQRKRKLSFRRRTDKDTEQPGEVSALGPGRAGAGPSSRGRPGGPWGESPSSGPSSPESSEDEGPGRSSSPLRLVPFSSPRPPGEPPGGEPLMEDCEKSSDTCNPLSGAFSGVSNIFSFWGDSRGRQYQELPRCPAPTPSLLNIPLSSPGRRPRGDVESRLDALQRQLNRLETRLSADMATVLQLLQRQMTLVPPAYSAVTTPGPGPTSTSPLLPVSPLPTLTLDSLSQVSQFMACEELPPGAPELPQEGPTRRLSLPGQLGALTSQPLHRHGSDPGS
UniProt P23219, whole entry: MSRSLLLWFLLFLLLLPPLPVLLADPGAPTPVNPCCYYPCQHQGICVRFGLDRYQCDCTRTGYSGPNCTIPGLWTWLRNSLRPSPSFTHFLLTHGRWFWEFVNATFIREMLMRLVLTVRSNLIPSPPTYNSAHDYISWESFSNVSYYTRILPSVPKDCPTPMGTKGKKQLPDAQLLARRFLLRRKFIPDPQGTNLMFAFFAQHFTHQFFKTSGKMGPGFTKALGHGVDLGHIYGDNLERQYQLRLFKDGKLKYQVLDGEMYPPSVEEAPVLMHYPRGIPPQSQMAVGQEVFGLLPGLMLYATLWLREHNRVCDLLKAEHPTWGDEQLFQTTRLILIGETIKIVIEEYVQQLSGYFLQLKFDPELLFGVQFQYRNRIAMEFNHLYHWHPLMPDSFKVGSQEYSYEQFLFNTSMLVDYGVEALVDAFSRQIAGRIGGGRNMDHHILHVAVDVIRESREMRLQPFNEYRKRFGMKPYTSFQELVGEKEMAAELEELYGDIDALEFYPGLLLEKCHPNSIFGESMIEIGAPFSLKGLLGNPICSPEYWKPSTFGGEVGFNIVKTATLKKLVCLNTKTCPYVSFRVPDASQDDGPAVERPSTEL

Values joined by “and” are separate entries in the source; they are usually repeats but may differ in a detail not shown here. Equal values may be shown once.
Also: assay procedure not described here.

With `C#CCN(C)Cc1ccccc1` [PARGYLINE], the AC50 in assay [1] was 3.11 µM; in [2], 5.8 µM. `CCN(CC)CCNC(=O)c1c(C)[nH]c(/C=C2\C(=O)Nc3ccc(F)cc32)c1C` [SUNITINIB]: the activity in assay [3] was half-maximal at 27 µM (AC50). `COc1cc(C(=O)NCc2ccc(OCCN(C)C)cc2)cc(OC)c1OC` [TRIMETHOBENZAMIDE] came in with an AC50 on Acetylcholinesterase of 3.22 µM. The compound `C=CC[N@@+]12CC[C@@]34c5ccccc5N5/C=C6/[C@H]7C[C@H]8[C@@]9(CC[N@@+]8(CC=C)C/C7=C/CO)c7ccccc7N(/C=C(/[C@@H](C[C@@H]31)/C(=C\CO)C2)[C@H]54)[C@@H]69` [ALCURONIUM] registered an AC50 in assay [4] of over 30 µM.

For `COC(=O)[C@@H]1[C@H]2C[C@H]3c4[nH]c5ccccc5c4CCN3C[C@@H]2CC[C@@H]1O` [YOHIMBINE], the half-maximal activity concentration (AC50) in assay [5] was over 30 µM; in [6], 75.2 nM; in assay [7], 644 nM and 66.1 nM; in [8], 240 nM. For the compound `N[C@@H](CC(=O)N1CCn2c(nnc2C(F)(F)F)C1)Cc1cc(F)c(F)cc1F` [SITAGLIPTIN], the half-maximal activity concentration (AC50) in assay [9] was over 30 µM. `CN1C(C(=O)Nc2ccccn2)=C(O)c2ccccc2S1(=O)=O` [PIROXICAM]: in [10], the AC50 turned out to be 22.4 µM. In other words, the double-digit micromolar range. In the case of `CC12CC3CC(C)(C1)CC(N)(C3)C2` [MEMANTINE], in [11], half-maximal activity (AC50) was put at 3.94 µM.

The term AC50 denotes the concentration at which the activity in the assay is half-maximal. High values mean weaker potency, low ones greater potency.

(Values after ChEMBL document CHEMBL5291721, “A preclinical secondary pharmacology resource illuminates target-adverse drug reaction associations of marketed drugs” (Nat Commun, 2023).)
